These results are taken from patent US20250195530A1, “POLQ INHIBITORS” (ASTRAZENECA AB, priority 2022, published 2025).

Amino acid sequences for entries named in this document (tags omitted). Residues count along the entry.
UniProt O75417, 1780-2590: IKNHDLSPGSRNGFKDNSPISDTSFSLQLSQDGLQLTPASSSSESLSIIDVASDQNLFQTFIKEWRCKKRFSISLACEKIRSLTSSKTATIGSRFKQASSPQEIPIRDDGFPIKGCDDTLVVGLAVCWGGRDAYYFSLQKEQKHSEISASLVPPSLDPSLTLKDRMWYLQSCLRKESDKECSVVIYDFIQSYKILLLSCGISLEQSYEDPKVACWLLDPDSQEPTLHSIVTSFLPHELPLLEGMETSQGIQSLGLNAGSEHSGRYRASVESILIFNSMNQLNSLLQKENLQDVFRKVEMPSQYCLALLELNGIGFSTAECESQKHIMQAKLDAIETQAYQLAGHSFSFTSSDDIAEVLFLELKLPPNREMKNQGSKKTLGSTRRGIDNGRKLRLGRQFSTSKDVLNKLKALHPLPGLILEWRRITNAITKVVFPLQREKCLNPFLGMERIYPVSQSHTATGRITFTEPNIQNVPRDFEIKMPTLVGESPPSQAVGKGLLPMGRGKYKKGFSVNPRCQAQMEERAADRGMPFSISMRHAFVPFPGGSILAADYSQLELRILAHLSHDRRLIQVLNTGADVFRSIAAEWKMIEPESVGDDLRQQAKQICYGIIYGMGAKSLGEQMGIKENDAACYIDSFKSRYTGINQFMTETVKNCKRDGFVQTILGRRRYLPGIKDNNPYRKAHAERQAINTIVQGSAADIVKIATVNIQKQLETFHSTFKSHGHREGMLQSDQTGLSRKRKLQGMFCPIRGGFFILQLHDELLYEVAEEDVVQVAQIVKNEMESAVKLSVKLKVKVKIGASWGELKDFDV

This assay addresses isolated polymerase domain (I1780-V2590) of DNA polymerase theta (Polθ) (Homo sapiens (Human), UniProt O75417). As to the kind of experiment: biochemical.

As to `CC(CCOc1ccc(-c2nc3c(OC4(C)CC4)ncnc3n2Cc2ccccc2C2CC2)c(Cl)c1)C(=O)O` (single isomer, unassigned) [Example T599, 4-(3-chloro-4-(9-(2-cyclopropylbenzyl)-6-(1-methylcyclopropoxy)-9H-purin-8-yl)phenoxy)-2-methylbutanoic acid], the IC50 – broadly, the concentration needed to halve the response being measured – is 6.31 nM. The value for `CC(COc1cccc(-c2nc3c(OC4(C)CC4)ncnc3n2Cc2cc(Cl)ccc2F)c1Cl)CC(=O)O` (single isomer, unassigned) [Example U33, 4-(2-chloro-3-(9-(5-chloro-2-fluorobenzyl)-6-(1-methylcyclopropoxy)-9H-purin-8-yl)phenoxy)-3-methylbutanoic acid] was 7.94 nM; that for `COc1ccc(F)cc1Cn1c(-c2cccc(OCC(C)CC(=O)O)c2Cl)nc2c(OC3(C)CC3)ncnc21` (single isomer, unassigned) [Example U77, 4-(2-chloro-3-(9-(5-fluoro-2-methoxybenzyl)-6-(1-methylcyclopropoxy)-9H-purin-8-yl)phenoxy)-3-methylbutanoic acid] was 3.16 nM; that for `C[C@H](CCOc1ccc(-c2nc3c(OC4(C)CC4)ncnc3n2Cc2cccc(Cl)c2)c(Cl)c1)C(=O)O` (single isomer, unassigned; isomer 1) [Example 34, 4-(3-Chloro-4-(9-(3-chlorobenzyl)-6-(1-methylcyclopropoxy)-9H-purin-8-yl)phenoxy)-2-methylbutanoic acid (Isomer 1)] was 5.01 nM. The value for `COc1ccc(Cl)cc1Cn1c(-c2cccc(OC[C@@H](C)CC(=O)O)c2Cl)nc2c(OC3(C)CC3)ncnc21` (single isomer, unassigned; isomer 1) [Example 50, 4-(2-Chloro-3-(9-(5-chloro-2-methoxybenzyl)-6-(1-methylcyclopropoxy)-9H-purin-8-yl)phenoxy)-3-methylbutanoic acid (isomer 1)] was 6.31 nM. Under `CC1NCCN(CCOc2ccc(-c3nc4c(OC5(C)CC5)ncnc4n3Cc3ccccc3)c(Cl)c2)C1=O` (single isomer, unassigned; isomer 1) [Example R13, 1-(2-(4-(9-benzyl-6-(1-methylcyclopropoxy)-9H-purin-8-yl)-3-chlorophenoxy)ethyl)-3-methylpiperazin-2-one (Isomer 1)] stands 2.51 nM; under `CC(c1cc(Cl)ccn1)n1c(-c2ccc(OCCN3CCNCC3)cc2Cl)nc2c(OC3(C)CC3)ncnc21` (single isomer, unassigned; isomer 1) [Example S6, 8-(2-chloro-4-(2-(piperazin-1-yl)ethoxy)phenyl)-9-(1-(4-chloropyridin-2-yl)ethyl)-6-(1-methylcyclopropoxy)-9H-purine (Isomer 1)], 3.16 nM. The compound `C[C@@H](CCOc1ccc(-c2nc3c(OC4(C)CC4)ncnc3n2Cc2cccc(Cl)c2)c(Cl)c1)C(=O)O` (single isomer, unassigned; isomer 2) [Example 35, 4-(3-Chloro-4-(9-(3-chlorobenzyl)-6-(1-methylcyclopropoxy)-9H-purin-8-yl)phenoxy)-2-methylbutanoic acid (Isomer 2)] gave an IC50 of 3.98 nM. Compound `COc1ccc(Cl)cc1Cn1c(-c2cccc(OC[C@H](C)CC(=O)O)c2Cl)nc2c(OC3(C)CC3)ncnc21` (single isomer, unassigned; isomer 2) [Example 51, 4-(2-Chloro-3-(9-(5-chloro-2-methoxybenzyl)-6-(1-methylcyclopropoxy)-9H-purin-8-yl)phenoxy)-3-methylbutanoic acid (isomer 2)] showed an IC50 of 6.31 nM. Under `CC1NCCN(CCOc2ccc(-c3nc4c(OC5(C)CC5)ncnc4n3Cc3ccccc3)c(Cl)c2)C1=O` (single isomer, unassigned; isomer 2) [Example R14, 1-(2-(4-(9-benzyl-6-(1-methylcyclopropoxy)-9H-purin-8-yl)-3-chlorophenoxy)ethyl)-3-methylpiperazin-2-one (Isomer 2)] stands 2 nM; under `CC(c1cc(Cl)ccn1)n1c(-c2ccc(OCCN3CCNCC3)cc2Cl)nc2c(OC3(C)CC3)ncnc21` (single isomer, unassigned; isomer 2) [Example S5, 8-(2-chloro-4-(2-(piperazin-1-yl)ethoxy)phenyl)-9-(1-(4-chloropyridin-2-yl)ethyl)-6-(1-methylcyclopropoxy)-9H-purine (Isomer 2)], 3.98 nM; under `CC1(Oc2ncnc3c2nc(-c2ccc(OCCCCC(=O)O)cc2Cl)n3Cc2cccc(Cl)c2)CC1` [Example 43, 5-(3-Chloro-4-(9-(3-chlorobenzyl)-6-(1-methylcyclopropoxy)-9H-purin-8-yl)phenoxy)pentanoic acid], 5.01 nM. Under `Cc1ccnc(Cn2c(-c3ccc(OCC(C)(C)O)cc3Cl)nc3c(OC4(C)CC4)ncnc32)c1` [Example 45, 1-(3-Chloro-4-(6-(1-methylcyclopropoxy)-9-((4-methylpyridin-2-yl)methyl)-9H-purin-8-yl)phenoxy)-2-methylpropan-2-ol] stands 6.31 nM.

In turn, `Cc1cc(OCCN2CCN(C)CC2)ncc1-c1nc2cc(OC(C)C)ccc2n1Cc1cccc(Cl)c1` [Example A7, 1-(3-chlorobenzyl)-5-isopropoxy-2-(4-methyl-6-(2-(4-methylpiperazin-1-yl)ethoxy)pyridin-3-yl)-1H-benzo[d]imidazole] had an IC50 of 2 nM.

The compound `CC(C)Oc1ncnc2c1nc(-c1ccc(OCCN3CCN(C)CC3)cc1)n2Cc1ccccc1` [Example B1, 9-benzyl-6-isopropoxy-8-(4-(2-(4-methyl-piperazin-1-yl)ethoxy)phenyl)-9H-purine] had an IC50 of 7.94 nM. Consider `Cc1cc(OCCN2CCNCC2)ccc1-c1nc2c(OC(C)C)ncnc2n1Cc1ccccc1` [Example B2, 9-benzyl-6-isopropoxy-8-(2-methyl-4-(2-(piperazin-1-yl)ethoxy)phenyl)-9H-purine], for which the IC50 was 2 nM. The value for `Cc1cc(OCCN2CCN(C)CC2)ncc1-c1nc2c(OC3(C)CC3)ncnc2n1Cc1ccccc1` [Example C3, 9-benzyl-8-(4-methyl-6-(2-(4-methylpiperazin-1-yl)ethoxy)pyridin-3-yl)-6-(1-methylcyclopropoxy)-9H-purine] was 2.51 nM. In the case of `CC1(Oc2ncnc3c2nc(-c2ccc(N4CCNCC4)cc2Cl)n3Cc2ccccc2)CC1` [Example C7, 9-benzyl-8-(2-chloro-4-(piperazin-1-yl)phenyl)-6-(1-methylcyclopropoxy)-9H-purine], 2.51 nM corresponded to half-maximal inhibition (IC50). Under `CC1(Oc2ncnc3c2nc(-c2ccc(OCC(=O)N4CCNCC4)cc2Cl)n3Cc2ccccc2)CC1` [Example C8, 2-(4-(9-benzyl-6-(1-methylcyclopropoxy)-9H-purin-8-yl)-3-chloro-phenoxy)-1-(piperazin-1-yl)ethan-1-one] stands 3.98 nM; under `CN1CCN(C(=O)COc2ccc(-c3nc4c(OC5(C)CC5)ncnc4n3Cc3ccccc3)c(Cl)c2)CC1` [Example C9, 2-(4-(9-benzyl-6-(1-methylcyclopropoxy)-9H-purin-8-yl)-3-chloro-phenoxy)-1-(4-methyl-piperazin-1-yl)ethan-1-one], 3.98 nM; under `CC(=O)N1CCC(COc2ccc(-c3nc4c(OC5(C)CC5)ncnc4n3Cc3ccccc3)c(Cl)c2)CC1` [Example D1, 1-(4-((4-(9-benzyl-6-(1-methylcyclopropoxy)-9H-purin-8-yl)-3-chlorophenoxy)methyl)piperidin-1-yl)ethan-1-one], 2 nM. Under `Cc1cc(OCCCN2CCCC2)ncc1-c1nc2c(OC3(C)CC3)ncnc2n1Cc1ccccc1` [Example G5, 9-benzyl-8-(4-methyl-6-(3-(pyrrolidin-1-yl)propoxy)pyridin-3-yl)-6-(1-methylcyclopropoxy)-9H-purine] stands 2.51 nM. The value for `Cc1nnc(Cn2c(-c3ccc(CC(N)=O)cc3Cl)nc3c(OC4(C)CC4)ncnc32)s1` [Example T1, 2-(3-chloro-4-(9-((5-methyl-1,3,4-thiadiazol-2-yl)methyl)-6-(1-methylcyclopropoxy)-9H-purin-8-yl)phenyl)acetamide] was 794 nM. Consider `Cc1nnc(Cn2c(-c3ccc(CC(N)=O)cc3Cl)nc3c(OC4(C)CC4)ncnc32)o1` [Example T2, 2-(3-chloro-4-(9-((5-methyl-1,3,4-oxadiazol-2-yl)methyl)-6-(1-methylcyclopropoxy)-9H-purin-8-yl)phenyl)acetamide], for which the IC50 was 6310 nM.

Turning to `Cc1ccnc(Cn2c(-c3ccc(N)cc3Cl)nc3c(OC4(C)CC4)ncnc32)c1` [Example T3, 3-chloro-4-(6-(1-methylcyclopropoxy)-9-((4-methylpyridin-2-yl)methyl)-9H-purin-8-yl)aniline], it took 7.94 nM to reach half-maximal inhibition (IC50). Under `Cc1cnc(Cn2c(-c3ccc(CC(N)=O)cc3Cl)nc3c(OC4(C)CC4)ncnc32)s1` [Example T4, 2-(3-chloro-4-(6-(1-methylcyclopropoxy)-9-((5-methylthiazol-2-yl)methyl)-9H-purin-8-yl)phenyl)acetamide] stands 15.8 nM; under `Cc1ncc(Cn2c(-c3ccc(CC(N)=O)cc3Cl)nc3c(OC4(C)CC4)ncnc32)s1` [Example T5, 2-(3-chloro-4-(6-(1-methylcyclopropoxy)-9-((2-methylthiazol-5-yl)methyl)-9H-purin-8-yl)phenyl)acetamide], 39.8 nM; under `Cc1nc(Cn2c(-c3ccc(CC(N)=O)cc3Cl)nc3c(OC4(C)CC4)ncnc32)cs1` [Example T6, 2-(3-chloro-4-(6-(1-methylcyclopropoxy)-9-((2-methylthiazol-4-yl)methyl)-9H-purin-8-yl)phenyl)acetamide], 63.1 nM.

`CC1(Oc2ncnc3c2nc(-c2ccc(CC(N)=O)cc2Cl)n3CCc2nccs2)CC1` [Example T7, 2-(3-chloro-4-(6-(1-methylcyclopropoxy)-9-(2-(thiazol-2-yl)ethyl)-9H-purin-8-yl)phenyl)acetamide] had an IC50 of 631 nM. As for `CNC(=O)COc1ccc(-c2nc3c(OC4(C)CC4)ncnc3n2Cc2cncs2)c(Cl)c1` [Example T8, 2-(3-chloro-4-(6-(1-methylcyclopropoxy)-9-(thiazol-5-ylmethyl)-9H-purin-8-yl)phenoxy)-N-methylacetamide], the concentration for half-maximal inhibition (IC50) was 79.4 nM.
